77 compounds from PubChem BioAssay AID1239 (SRMLSC, 2008) can be followed below.

Structures are written as SMILES. Only a part is listed here, and it is no random draw. Active and inactive are the calls of the source. Cut-off read from the data, not from the text of the source: active = fold change above about 3.3; inconclusive = no clear call, values can overlap the other calls; inactive = below that.

The nature of this assay: NF-kB upregulation, human neuronal cells – cell-based, HTS, primary screen (AID 1239). As to conditions: NF-kB reporter expression, at 12.5 µM, active compounds read high.
Regarding `CC(C)C(=O)NC(Sc1ccccc1)C(Cl)(Cl)Cl` (configuration not stated), the fold change was inactive: 1.09.
Take `O=P(Nc1nccs1)(c1ccccc1)c1ccccc1`: the fold change is inactive: 1.27.
As for `c1nnnn1CCn1cnnn1`, the figure is inactive: 1.55.
As for `CC(=O)NC(SC(=S)N(C)C)C(Cl)(Cl)Cl` (configuration not stated), the figure is active: 13.7.
Consider `C(Cc1nn[nH]n1)Cc1nn[nH]n1`, for which the fold change was inactive: 1.01.
The result for `O=C(OC1CN2CCC1CC2)c1cccc(Cl)c1` (configuration not stated) reads inactive: 1.01; that for `O=P(Nc1ccccn1)(c1ccc(Br)cc1)c1ccc(Br)cc1`, inactive: 1.26; that for `COC(=O)c1cc2c(s1)N=C(c1ccccc1)N(C)P2(=O)N1CCOCC1` (configuration not stated), inactive: 0.92.
As for `CC(=O)NC(SC(=S)N(CC(C)C)CC(C)C)C(Cl)(Cl)Cl` (configuration not stated), the figure is inactive: 1.96; as for `Cc1ccc(OP(=O)(Nc2ccccn2)Oc2ccc(C)cc2)cc1`, inactive: 0.69.
The result for `CCC(=O)N1C2C3N(C(=O)CC)C1C1N(C(=O)CC)C(C(N1C(=O)CC)N3C(=O)CC)N2C(=O)CC` reads inactive: 1.1.
For `O=c1c2cc([N+](=O)[O-])ccc2[nH]c2c([N+](=O)[O-])cc([N+](=O)[O-])cc12`, the fold change was inactive: 1.68.
For `CCNC(=S)/N=C(\N)N[N+](=O)[O-]`, the fold change is inactive: 1.19.
The result for `O=C(NC1CCS(=O)(=O)C1)NP(=S)(Oc1ccccc1)Oc1ccccc1` (configuration not stated) reads inactive: 1.16.
As for `c1ccc(-c2nn[nH]n2)c(-c2nn[nH]n2)c1`, the figure is inactive: 1.14.
For the compound `CCOC(=O)NC(Sc1ccccc1)C(Cl)(Cl)Cl` (configuration not stated), the fold change is inactive: 0.95.
The result for `CC(=O)Nc1ccc(Oc2c([N+](=O)[O-])cc([N+](=O)[O-])cc2[N+](=O)[O-])cc1` reads inactive: 1.23; that for `O=P1(Nc2nc3ccc(Cl)cc3s2)COc2ccccc2O1` (configuration not stated), inactive: 1.24; that for `CCOc1ccc(C2=NCC(CBr)S2)cc1` (configuration not stated), inactive: 1.68.
For the compound `CC(C)(C)C(=O)NC(Sc1ccccc1)C(Cl)(Cl)Cl` (configuration not stated), the fold change is inactive: 0.86.
As for `CC(C)CC(=O)NC(Sc1ccc(Cl)cc1)C(Cl)(Cl)Cl` (configuration not stated), the figure is inactive: 1.26; as for `Oc1ccccc1CNc1ccccn1`, inactive: 1.02.
On to `O=C(NC(Sc1ccncn1)C(Cl)(Cl)Cl)c1ccccc1` (configuration not stated), for which the fold change was inactive: 1.13.
Take `Cc1c2non([O-])c-2c(C)[n+](=O)[n+]1[O-]`: the fold change was inactive: 0.99.
The result for `NC(=O)c1cc([N+](=O)[O-])cc([N+](=O)[O-])c1N` reads inactive: 1.04; that for `Cc1ccc(N/C(=N/P(=O)(N2CCOCC2)N2CCOCC2)N2CCOCC2)cc1`, inactive: 0.93.
The result for `COc1ccccc1OP(=O)(Nc1ccc(C)cn1)Oc1ccccc1OC` reads inactive: 1.13.
The result for `CN1CCCC(OC(=O)C(c2ccccc2)c2ccccc2)C1` (configuration not stated) reads inactive: 1.21.
Turning to `Clc1ccc(Cl)c(NC2=NCC(CBr)S2)c1` (configuration not stated), the fold change was inactive: 1.06.
As for `CCN(N=Nc1nonc1N)c1nonc1N`, the figure is inactive: 1.15; as for `Cc1cc(SC(NC(=O)c2ccc(F)cc2)C(Cl)(Cl)Cl)ncn1` (configuration not stated), inactive: 1.14; as for `CCOP(=O)(Nc1ccccc1)OCC`, inactive: 1.22.
On to `O=[N+]([O-])c1ncn(CCn2ncnc2[N+](=O)[O-])n1`, for which the fold change is inactive: 1.14.
For `CCN(/C(=N/P(=O)(N1CCOCC1)N1CCOCC1)N1CCOCC1)c1ccc(OC)cc1`, the fold change is inactive: 1.23.
As to `CC(C)=N/N=C(\N)N[N+](=O)[O-]`, the fold change was inactive: 1.1.
The result for `CN(C)C(=O)OCCc1n(C)cc[n+]1C` reads inactive: 1.14.
As for `CC1CCN(C(=O)Oc2c(Cl)cc(Cl)c3cccnc23)CC1`, the figure is inactive: 1.19; as for `COc1ccc(C2=NCC(CBr)S2)cc1` (configuration not stated), inactive: 1.2; as for `O=[N+]([O-])c1cccc2n[nH]nc12`, inactive: 1.24.
As for `CC(=O)N1C2C3N(C(C)=O)C1C1N(C(C)=O)C(C(N1C(C)=O)N3C(C)=O)N2C(C)=O`, the figure is inactive: 1.1; as for `Cc1ccc(NP(=O)(Oc2ccccc2)Oc2ccccc2)nc1`, inactive: 1.01; as for `CCc1nc2c(n1)c1c(non1O)c1c2no[n+]1[O-]`, inactive: 1.04.
Regarding `O=[N+]([O-])c1cc([N+](=O)[O-])c(CCNc2ccccc2)c([N+](=O)[O-])c1`, the fold change is inactive: 1.37.
The result for `CCC(C)N(CC(C)C)C(=S)SC(NC(C)=O)C(Cl)(Cl)Cl` (configuration not stated) reads inactive: 1.32; that for `COP1(=S)c2c(C)nn(CCC#N)c2N=C(c2ccc(F)cc2)N1C` (configuration not stated), inactive: 1.18; that for `O=C(COc1ccccc1)OC1CN2CCC1CC2` (configuration not stated), inactive: 1.21.
As for `O=P(Nc1ccccn1)(c1cccc2ccccc12)c1cccc2ccccc12`, the figure is inactive: 1.12; as for `Cc1cc(SC(NC=O)C(Cl)(Cl)Cl)ncn1` (configuration not stated), inactive: 1.22.
Turning to `Cc1cc(SC(NC(=O)c2ccccc2)C(Cl)(Cl)Cl)nc(C(C)C)n1` (configuration not stated), the fold change is inactive: 1.42.
The result for `ClCCSc1nnc(-c2cccnc2)o1` reads inactive: 1.34; that for `CC(C)NC(=O)NP(=O)(Oc1ccccc1)Oc1ccccc1`, inactive: 0.9.
For `CCN(CC)C(=S)SC(NC=O)C(Cl)(Cl)Cl` (configuration not stated), the fold change is inactive: 1.01.
On to `O=[N+]([O-])c1cc([N+](=O)[O-])c(-c2ccn[nH]2)s1`, for which the fold change was inactive: 1.12.
The result for `Cc1ccc2nc3c(c(C)c2c1)CC(C(Cl)Cl)S3` (configuration not stated) reads inactive: 1.98.
Regarding `COc1ccc(N/C(=N/P(=O)(N2CCOCC2)N2CCOCC2)N2CCOCC2)cc1`, the fold change was inactive: 1.27.
As for `O=C(OC1CN2CCC1CC2)C12CC3CC(CC(C3)C1)C2` (configuration not stated), the figure is inactive: 0.99.
The result for `Cc1cc(=O)[nH]c(N[N+](=O)[O-])n1` reads inactive: 1.11.
The result for `Cc1c2c(nc3ccccc13)SC(C(Cl)Cl)C2` (configuration not stated) reads inactive: 1.01; that for `COc1ccc2nc(NP(=O)(c3ccccc3)c3ccccc3)sc2c1`, inactive: 1.13.
As to `Cc1ccc(NCCc2c([N+](=O)[O-])cc([N+](=O)[O-])cc2[N+](=O)[O-])cc1`, the fold change was inactive: 1.03.
As for `COc1cc(C2NCCC3(OCCO3)C2(C)C)cc(OC)c1OC` (configuration not stated), the figure is inactive: 1.05; as for `CCOP(=O)(Nc1cccc2ccccc12)OCC`, inactive: 1.39.
The result for `COc1cc(C(=O)NCC2(N3CCOCC3)CCCCC2)cc(Cl)c1OC(C)C` reads inactive: 0.87; that for `Cc1cccc(OCC(=O)OC2CN3CCC2CC3)c1` (configuration not stated), inactive: 1.11.
The result for `O=[N+]([O-])c1ccc2c(c1)nnn2O` reads inactive: 1.04; that for `CCOP1(=S)c2c(C)nn(CCC#N)c2N=C(c2ccc(F)cc2)N1C` (configuration not stated), inactive: 0.95; that for `CCOP1(=S)c2c(C)nn(CCC#N)c2N=C(c2ccccc2F)N1C` (configuration not stated), inactive: 0.9.
With `O=P(Nc1nccs1)(Oc1ccccc1)Oc1ccccc1`, the fold change was inactive: 0.72.
As for `O=P(Nc1nccs1)(c1ccccc1)c1nc2ccccc2s1` (configuration not stated), the figure is inactive: 1.49; as for `O=P1(Nc2ncccn2)COc2ccccc2OC1`, inactive: 0.85; as for `Cc1ccc(OCC(=O)OC2CN3CCC2CC3)cc1` (configuration not stated), inactive: 1.
For the compound `O=P1(Nc2ccc(Br)cn2)COc2ccccc2OC1`, the fold change was inactive: 1.08.
The result for `Cc1nn(-c2ccccc2)c2c1P(=O)(N1CCOCC1)N(C)C(c1ccccc1)=N2` (configuration not stated) reads inactive: 0.91; that for `CC1CCC(C(C)C)C(OP(=O)(Nc2ccccn2)c2ccccc2)C1` (configuration not stated), inactive: 0.47; that for `CN(C)C1(CNC(=O)c2ccc(S(C)(=O)=O)cc2)CCCCC1`, inactive: 1.01.
The result for `O=P1(Nc2ccccn2)COc2ccccc2OC1` reads inactive: 1.02.
As for `Clc1n[nH]nc1-c1nn[nH][15n]1`, the figure is inactive: 1.21.
